Measurements as given in patent publication US20240058240A1, “COMPOUNDS AS SELF-TANNING SUBSTANCES AND TANNING COMPOSITIONS THEREOF” (CHEMCOM S.A., priority 2020, published 2024).

Amino acid sequences for entries named in this document (tags omitted).
UniProt O76099, whole entry: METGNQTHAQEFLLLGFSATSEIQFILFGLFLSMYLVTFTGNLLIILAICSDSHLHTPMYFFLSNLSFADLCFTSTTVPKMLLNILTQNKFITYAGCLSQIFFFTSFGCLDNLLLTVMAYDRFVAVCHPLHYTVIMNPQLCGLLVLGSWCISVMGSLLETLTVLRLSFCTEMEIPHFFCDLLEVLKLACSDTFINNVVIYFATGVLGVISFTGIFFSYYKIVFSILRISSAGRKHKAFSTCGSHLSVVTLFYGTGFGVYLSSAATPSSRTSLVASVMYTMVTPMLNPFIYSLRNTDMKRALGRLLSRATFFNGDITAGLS

Target: OR7C1 (Homo sapiens, UniProt O76099)
Assay: Luciferase-based CRE gene reporter assay, dose-response on OR7C1
Conditions: negative logarithm of the EC50 in Moles; semi-logarithmic dilutions from 1 mM to 316 nM on OR7C1

-LogEC50 (average n > 3): 4.3
SMILES: C[C@H](CO)C1=C2C(C)(C)[C@H]3CC[C@@]2(C3)C(C)(C)CC1
